# How the values were obtained:
# [1] = system: H2228 cells; test: Flow cytometry of cell surface HLA on EML4-ALK cell line H2228; assay type: cell-based, human; conditions: H2228, 100 nM
# Method: If adherent cells, they were seeded one day before treatment.
# [2] = system: pERK in A498 cells; test: pERK in A498 cells; assay type: cell-based, human
# Method: Cells were seeded in a 60 mm dish or 6 well plates. After the appropriate time point, cells were harvested and lysed and protein was quantified by a Lowry assay (Bio-Rad DC Protein Assay; #5000116). Protein levels were normalized and run on SDS PAGE gels (Bio-Rad). Protein was transferred to a nitrocellulose membrane using semi-dry transfer. Membrane was blocked and incubated with respective antibodies. When needed, secondary antibodies with HRP were incubated for 1 hr. Enhanced chemiluminescent substrate for HRP enzymes was used to image protein levels (Thermo-Fischer; #34095).
# Experiments in this Example were performed as described in Section 6.1.2.
Compound,surface HLA levels [1],surface HLA levels ([1]; listed as Crizotinib),pERK [2]
C[C@@H](Oc1cc(-c2cnn(C3CCNCC3)c2)cnc1N)c1c(Cl)ccc(F)c1Cl [crizotinib],cell surface HLA levels did not change either,no increase in surface HLA was seen,
"trastuzumab: an ERBB2 inhibitor, from Genentech",,,not A498 cells

# Reference: patent US20210379046A1, “Methods of Treating Diseases Using Kinase Modulators” (Memorial Sloan Kettering Cancer Center, priority 2018, published 2021)
